Test system: NIH3T3
Assay: In vitro cytotoxicity was evaluated in mouse embryo BALB/c 3T3 cells
Format: functional
Details: read-out: LC50

With `NP(=O)(O)N(CCCl)CCCl` the CC50 was 3000 nM.

Reference: ChEMBL document CHEMBL1130863, “N3-methyl-mafosfamide as a chemically stable, alternative prodrug of mafosfamide” (1998)
